Experimental data reported in IntAct's records for PubMed 16525023.

B1: RAC-alpha serine/threonine-protein kinase (Homo sapiens), P31749 (parent)
chain: MSDVAIVKEGWLHKRGEYIKTWRPRYFLLKNDGTFIGYKERPQDVDQREAPLNNFSVAQCQLMKTERPRPNTFIIRCLQWTTVIERTFHVETPEEREEWTTAIQTVADGLKKQEEEEMDFRSGSPSDNSGAEEMEVSLAKPKHRVTMNEFEYLKLLGKGTFGKVILVKEKATGRYYAMKILKKEVIVAKDEVAHTLTENRVLQNSRHPFLTALKYSFQTHDRLCFVMEYANGGELFFHLSRERVFSEDRARFYGAEIVSALDYLHSEKNVVYRDLKLENLMLDKDGHIKITDFGLCKEGIKDGATMKTFCGTPEYLAPEVLEDNDYGRAVDWWGLGVVMYEMMCGRLPFYNQDHEKLFELILMEEIRFPRTLGPEAKSLLSGLLKKDPKQRLGGGSEDAKEIMQHRFFAGIVWQHVYEKKLSPPFKPQVTSETDTRYFDEEFTAQMITITPPDQDDSMECVDSERRPHFPQFSYSASGTA
partner: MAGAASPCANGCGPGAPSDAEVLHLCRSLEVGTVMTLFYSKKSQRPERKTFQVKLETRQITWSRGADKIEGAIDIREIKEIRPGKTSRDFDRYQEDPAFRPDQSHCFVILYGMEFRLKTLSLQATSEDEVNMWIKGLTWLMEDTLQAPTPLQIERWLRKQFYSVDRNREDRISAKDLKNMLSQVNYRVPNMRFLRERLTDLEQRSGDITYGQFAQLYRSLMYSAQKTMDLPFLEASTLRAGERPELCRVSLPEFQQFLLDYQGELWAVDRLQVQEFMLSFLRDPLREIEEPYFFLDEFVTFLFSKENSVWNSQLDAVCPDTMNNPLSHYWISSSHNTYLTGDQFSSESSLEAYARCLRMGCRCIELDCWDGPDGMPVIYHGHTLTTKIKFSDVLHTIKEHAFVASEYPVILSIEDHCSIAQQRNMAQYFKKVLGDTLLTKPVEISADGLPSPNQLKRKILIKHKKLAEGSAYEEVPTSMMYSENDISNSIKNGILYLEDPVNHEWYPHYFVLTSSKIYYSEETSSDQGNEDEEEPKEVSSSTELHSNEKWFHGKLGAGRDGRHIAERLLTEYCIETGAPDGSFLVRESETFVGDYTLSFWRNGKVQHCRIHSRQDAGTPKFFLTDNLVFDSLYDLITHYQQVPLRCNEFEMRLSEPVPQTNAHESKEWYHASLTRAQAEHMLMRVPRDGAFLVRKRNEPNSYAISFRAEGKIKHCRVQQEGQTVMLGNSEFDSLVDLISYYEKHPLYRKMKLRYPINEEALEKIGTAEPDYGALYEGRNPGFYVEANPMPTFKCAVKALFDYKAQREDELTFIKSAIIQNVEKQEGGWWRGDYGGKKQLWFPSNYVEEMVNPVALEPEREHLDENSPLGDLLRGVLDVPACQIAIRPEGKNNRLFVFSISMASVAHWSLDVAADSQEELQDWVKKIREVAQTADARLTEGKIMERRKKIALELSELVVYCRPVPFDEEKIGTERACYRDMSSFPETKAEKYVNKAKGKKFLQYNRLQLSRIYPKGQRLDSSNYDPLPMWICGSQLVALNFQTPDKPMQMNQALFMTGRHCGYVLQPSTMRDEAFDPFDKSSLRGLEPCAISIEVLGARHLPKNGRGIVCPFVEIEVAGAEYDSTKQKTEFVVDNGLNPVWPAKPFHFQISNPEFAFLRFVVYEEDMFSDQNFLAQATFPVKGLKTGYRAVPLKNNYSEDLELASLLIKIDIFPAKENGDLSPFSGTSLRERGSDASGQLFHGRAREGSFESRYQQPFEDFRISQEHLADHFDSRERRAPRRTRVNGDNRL

Variants of: B1
Conditions: with plcg1_human PLCG1, P19174

Variant | effect of a mutation on the interaction
P424A | decreasing interaction
P467A | decreasing interaction
